Test results reported in paper PMC3653324 (Translational stroke research, 2012).

Amino acid sequences for entries named in this document (tags omitted).
UniProt P05177, whole entry: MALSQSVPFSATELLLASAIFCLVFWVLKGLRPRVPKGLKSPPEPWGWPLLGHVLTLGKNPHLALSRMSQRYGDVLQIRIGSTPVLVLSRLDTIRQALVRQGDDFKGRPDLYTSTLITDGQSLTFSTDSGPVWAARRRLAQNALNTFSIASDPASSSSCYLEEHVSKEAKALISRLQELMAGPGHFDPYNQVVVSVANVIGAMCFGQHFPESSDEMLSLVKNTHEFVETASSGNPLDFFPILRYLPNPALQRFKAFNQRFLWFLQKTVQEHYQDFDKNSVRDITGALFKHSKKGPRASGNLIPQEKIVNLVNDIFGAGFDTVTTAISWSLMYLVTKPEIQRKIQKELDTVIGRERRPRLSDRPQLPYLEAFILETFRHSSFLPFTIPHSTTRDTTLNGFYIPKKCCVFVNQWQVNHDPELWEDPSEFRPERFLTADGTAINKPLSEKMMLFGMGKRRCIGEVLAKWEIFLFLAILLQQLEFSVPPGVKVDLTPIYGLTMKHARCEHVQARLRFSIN

Target: CYP1A2 (Homo sapiens, UniProt P05177)
Assay: Cloe Screen Cytochrome P450 Inhibition assay
Assay type: in vitro ADME

Compound: O=c1c(O)c(-c2ccc(O)c(O)c2)oc2c1ccc1ccccc12 [CSMC-6, 3,3',4'-trihydroxy alpha-naphthoflavone]
- CYP1A2 inhibition classification (classified from IC50): moderate inhibition
- IC50 (read-out: CYP1A2 IC50, human liver microsomes, substrate head: Phenacetin): 1140 nM
